# scFv variants of Ab-14 (heavy chain) against a SARS-CoV-2 spike peptide

Binding partner: SARS-CoV-2 spike HR2 peptide, sequence PDVDLGDISGINAS.

Ab-14 is the parent antibody, in scFv form: VH, then a (GGGGS)3 linker, then VL. The light chain is unchanged in all variants.
VH: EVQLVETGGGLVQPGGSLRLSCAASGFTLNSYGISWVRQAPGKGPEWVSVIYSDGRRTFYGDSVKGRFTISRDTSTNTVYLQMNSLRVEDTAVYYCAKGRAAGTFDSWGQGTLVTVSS
VL: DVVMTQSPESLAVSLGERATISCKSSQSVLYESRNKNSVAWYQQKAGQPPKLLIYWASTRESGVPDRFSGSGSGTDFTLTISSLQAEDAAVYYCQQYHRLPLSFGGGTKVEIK

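The parent was found by panning a naive human phage display library on the peptide. These sequences belong to a second round, designed from the earlier measurements on random variants of the parent. Their group label is 14H_GPLM_Gen (GPLM: also part of the Gaussian process libraries; Gen: genetic algorithm; a sequence that several methods proposed may carry one label only). AlphaSeq pools MATa yeast showing the antibodies with MATalpha yeast showing the peptide. The frequency of each diploid, read from paired DNA barcodes, reflects how well the two displayed proteins bind. Each replicate has its own calibration line, from reference interactions of the BCL2 family. Mating was done six times.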

Each variant is given by its three heavy chain CDRs, as the data file delimits them; those of the parent are GFTLNSYGIS, VIYSDGRRTFYGDSVK, GRAAGTFDS. The read-out is the apparent dissociation constant on a log10 scale (nM): the lower, the stronger. "ND" marks a missing value. The strain was present, yet no cells mated with the target were sequenced in that replicate, which points to weak or no binding. Three control strains display no target. For all heavy chain designs, 1% of the pairings with them gave a signal, with a median of 2.08 and one signal in twenty below 0.84, so weak values seen in few replicates may be background. For each scFv, signals with the empty controls are counted beside the result, with their mean in brackets.

CDR-H1,CDR-H2,CDR-H3,"log10 Kd, replicates",empty controls
GFSLNQYGIS,VIYSDGRRTFYGDSVK,GQAAGTFDS,0.87 / -0.06 / -0.07 / -0.10 / -0.46 / 0.34,0/18
GFSLNSYGIS,VIYSDGRRTFYDDSVK,GRAAGTFDS,ND / ND / ND / ND / ND / ND,0/18
GFDLNSYGIS,VIYSDGRRTFYGDSVK,GRAAGHFDS,ND / ND / ND / ND / ND / ND,0/18
GFSLNEYGIS,VIYSDGRRTFYKDSVK,GRAAGTFDS,-0.35 / -0.13 / -0.33 / 0.00 / -0.36 / -0.07,1/18 (1.39)
GFSLNSYGIS,VIYSDGRRTFYGDKVK,GRTAGTFDS,1.74 / 2.28 / ND / ND / 1.12 / ND,0/18
GFTLNDYGIS,VIYSDGRRTFYIDSVK,GRHAGTFDS,1.11 / 1.21 / 0.97 / 1.21 / 1.33 / 1.03,0/18
GFELNSYGIS,VIYSDGRRTFYSDSVK,GVAAGTFDS,0.68 / 0.48 / 0.53 / 0.60 / 0.76 / 0.51,0/18
GFSLNSYGIS,VIYSDGRRTFYIDSVK,GSAAGTFDS,1.05 / 0.66 / 0.33 / 0.29 / 0.29 / 0.68,0/18
GFTLNDYGIS,VIYSDGRRTFYIDSVK,GREAGTFDS,0.31 / -0.56 / -0.47 / ND / -0.30 / ND,0/18
GFALNSYGIS,VIYSDGRRTFYADSVK,GNAAGTFDS,0.80 / 0.36 / 0.43 / 1.35 / 0.90 / 0.11,1/18 (1.49)
GFTLNSYGIS,VIYSDGRRTFYIDSVK,GNAAGTFDS,ND / 0.03 / 0.83 / 0.35 / 0.39 / 1.17,0/18
GFSLNSYGIS,VIYSDGRRTFYADAVK,GNAAGTFDS,0.44 / 0.18 / 0.00 / -0.04 / 0.43 / 0.58,0/18
GFSLNEYGIS,VIYSDGRRTFYGDSVK,GRTAGTFDD,0.48 / 0.07 / 0.00 / -0.23 / 0.12 / 0.05,0/18
GFGLNSYGIS,VIYADGRRTFYGDSVK,GQAAGTFDS,0.05 / 0.03 / 0.30 / 0.24 / 0.18 / 0.89,0/18
GFSLNSYGIS,VIYSDGRRTFYGDSVK,GKAAGTFDS,0.29 / 0.23 / 0.13 / 0.48 / 1.01 / 1.38,0/18
GFSLNEYGIS,VIYSDGRRTWYGDSVK,GRTAGTFDS,0.06 / 0.11 / 1.02 / 0.20 / 0.07 / -0.18,0/18
GFSLNSYGIS,VIYSDGRRTFYADSVK,GRTAGTFDK,0.41 / 0.35 / 0.14 / 0.33 / 0.87 / 0.34,0/18
GFTLNEYGIS,VIYSDGRRTFYGDSVK,GRTAGTFDS,-0.24 / 0.13 / -0.40 / -0.20 / 0.15 / -0.20,0/18
GFDLNSYGIS,VIYSDGRRTFYGDSVK,GTAAGTFDS,0.59 / 0.77 / 0.14 / 0.35 / 0.55 / 0.47,0/18
GFSLNSYGIS,VIYSDGRRTFYADTVK,GNAAGTFDS,0.40 / 1.39 / 0.50 / 0.41 / 1.01 / 0.46,0/18
GFNLNSYGIS,VIYSDGRRTFYADSVK,GRVAGTFDS,0.58 / 0.53 / 0.21 / 0.07 / 0.40 / 0.39,0/18
GFTLNSYGIS,VIYSDGQRTFYADSVK,GQAAGTFDS,0.86 / 0.89 / 0.54 / 0.41 / 0.56 / 0.77,0/18
GFSLNSYGIS,VIYSDGRRTAYSDSVK,GRAAGTFDS,-0.48 / 0.16 / -0.44 / -0.50 / -0.42 / -0.27,0/18
GFTLNSYGIS,VIYSDGRRTFYQDSVK,GRVAGTFDS,3.17 / 1.35 / 2.36 / 1.74 / 1.14 / 1.16,0/18
GFDLNSYGIS,VIYSDGRRTFYADSVK,GRAAATFDS,ND / ND / ND / 3.01 / 2.37 / ND,1/18 (1.92)
GFKLNEYGIS,VIYSDGRRTFYGDSVK,GRNAGTFDS,-0.17 / 0.03 / -0.10 / -0.25 / -0.20 / -0.12,1/18 (2.57)
GFSLNSYGIS,VIYSDGRRTFYDDSVK,GNAAGTFDS,0.19 / 0.30 / 0.08 / 0.66 / -0.17 / 0.07,0/18
GFTLNDYGIS,VIYSDGRRTFYMDSVK,GRTAGTFDS,-0.07 / -0.01 / 0.35 / 0.21 / 0.61 / -0.19,0/18
GFSLNSYGIS,VIYSDGRRTFYHDSVK,GTAAGTFDS,0.44 / 0.24 / 0.51 / 0.80 / 0.18 / 0.48,0/18
GFSLNSYGIS,VIYSDGRRTFYSDSVK,GATAGTFDS,0.01 / -0.45 / -0.52 / -0.47 / -0.47 / -0.11,0/18
GFSLNQYGIS,VIYSDGRRTFYADSVK,GRTAGTFDS,-0.47 / -0.29 / -0.32 / -0.30 / -0.41 / 0.01,0/18
GFTLNEYGIS,VIYSDGRRTFYGDSVK,GREAGTFDL,1.05 / 0.54 / 0.50 / 0.53 / 0.72 / 0.60,0/18
GFSLNSYGIS,VIYSDGRRTFYADNVK,GEAAGTFDS,0.83 / 0.32 / 0.10 / 1.24 / -0.01 / 0.64,0/18

Excerpt, the final 3 entries:

CDR-H1	CDR-H2	CDR-H3	log10 Kd, replicates	empty controls
GFSLNQYGIS	VIYSDGRRTFYADSVK	GRTAGTFDS	-0.47 / -0.29 / -0.32 / -0.30 / -0.41 / 0.01	0/18
GFTLNEYGIS	VIYSDGRRTFYGDSVK	GREAGTFDL	1.05 / 0.54 / 0.50 / 0.53 / 0.72 / 0.60	0/18
GFSLNSYGIS	VIYSDGRRTFYADNVK	GEAAGTFDS	0.83 / 0.32 / 0.10 / 1.24 / -0.01 / 0.64	0/18

Values of this round are not directly comparable with the first-round values of the same sequences. The authors averaged sequences with at least three values out of six and counted those with two or fewer as poor binders.

Data: MIT Lincoln Laboratory AlphaSeq set, Li et al. 2023, doi:10.1038/s41467-023-39022-2, as distributed in FLAb.